# Reported logP (octanol/water) values for industrial, environmental and drug-like chemicals

Data: OPERA 2.9 data sets, kmansouri/OPERA on GitHub.

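OPERA's authors assembled the values from existing databases and did not measure them anew. One number stands for a compound and property, with no spread given. Conditions of the individual experiments are not part of the data. A value may pool stereoisomers or salt forms, and the file does not say which form was measured. Some entries may be limits or estimates that an upstream database listed as plain numbers.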

logP is the log10 of the octanol-water partition coefficient; higher is more lipophilic. "–" marks a cell with nothing listed here.

compound,name,logP (octanol/water)
Nc1nc2c(ncn2[C@H]2C[C@H](O)[C@@H](CO)O2)c(=O)[nH]1,"Guanosine, 2'-deoxy-",-1.3
COc1ccc2c(c1)C(=O)N(CCc1ccc(S(=O)(=O)NC(=O)NC3CCCCC3)cc1)C(=O)C2(C)C,Gliquidone,4.5
CC(=O)OCCC1=CC[C@H]2C[C@@H]1C2(C)C,"Nopyl acetate, (-)-",4.24
CCCCCCC1CCCC1=O (stereo unspecified),2-Hexylcyclopentanone,3.9
COc1ccc2c(c1)C(=O)OC(=O)C2(C)C,–,1.2
C=CC(=O)OCCOCCOCC(CC)CCCC (stereo unspecified),Di(ethylene glycol) 2-ethylhexyl ether acrylate,4.59
Nc1ccn([C@@H]2O[C@H](COP(=O)(O)O)[C@@H](O)[C@H]2O)c(=O)n1,5'-Cytidylic acid,-3.51
CC(=O)[C@H]1CC[C@H]2[C@@H]3C=CC4=CC(=O)CC[C@@]4(C)[C@@H]3CC[C@]12C,Dydrogesterone,3.4
CCc1ccc(C2OC3COC(c4ccc(CC)cc4)OC3C(C(O)CO)O2)cc1 (stereo unspecified),"1,3:2,4-Bis-O-[(4-ethylphenyl)methylene]hexitol",1.6
CNC(=O)c1cc(Oc2ccc(N)c(F)c2)ccn1,4-(4-Amino-3-fluorophenoxy)-N-methylpyridine-2-carboxamide,1.3
C=CCN(CC=C)c1cc(NC(C)=O)c(N=Nc2c(Cl)cc([N+](=O)[O-])cc2[N+](=O)[O-])cc1OC,–,1.913
C=CC(=O)OCC(CC)(COCC(CC)(COC(=O)C=C)COC(=O)C=C)COC(=O)C=C,Ditrimethylolpropane tetraacrylate,4.14
CCCC1CCC(=O)CC1,4-Propylcyclohexanone,2.62
COc1ccc2c(c1)C(CC#N)=CCC2,"(7-Methoxy-3,4-dihydronaphthalen-1-yl)acetonitrile",2.42
CCO[Si](CCCCl)(OCC)OCC,(3-Chloropropyl)(triethoxy)silane,3.1
CN1CN(C)CN(C)C1,"1,3,5-Trimethyl-1,3,5-triazacyclohexane",0.76
CC(O)CN(C)CC(C)O (stereo unspecified),"2-Propanol, 1,1'-(methylimino)bis-",-0.03
CN(c1ccccc1)c1nc(Cl)nc(Nc2cc(S(=O)(=O)[O-])cc3cc(S(=O)(=O)[O-])c(/N=N/c4ccccc4S(=O)(=O)[O-])c(O)c23)n1.[Na+].[Na+].[Na+],–,-3.26
CNC(=O)c1cc(Oc2ccc(NC(=O)Nc3ccc(Cl)c(C(F)(F)F)c3)cc2)ccn1,Sorafenib,3.55
C=C(C)C(=O)OCCN1CCNC1=O,–,1.315
CC(O)C(=O)N(C)C (stereo unspecified),"Propanamide, 2-hydroxy-N,N-dimethyl-",-0.94
O=C(OCC1CO1)C1CC=CCC1C(=O)OCC1CO1 (stereo unspecified),–,1.46
C=CC(=O)NCCO,(2-Hydroxyethyl)acrylamide,-0.73
CCCOCC[N+](C)(C)C.[I-],"N,N,N-Trimethyl-2-propoxyethan-1-aminium iodide",-1.97
Cc1ccc(S(=O)(=O)c2ccc(O)c(O)c2)cc1,"1,2-Benzenediol, 4-[(4-methylphenyl)sulfonyl]-",1.47
CCN(CC)CC(=O)OCC(=O)[C@@]1(O)CC[C@H]2[C@@H]3CCC4=CC(=O)CC[C@]4(C)[C@H]3[C@@H](O)C[C@@]21C,Hydrocortamate,1.2
CC(C)c1ccc(S(=O)(=O)[O-])cc1.[Na+],Sodium 4-isopropylbenzenesulfonate,-1.1
Cc1c(C)c(O)c(C)c(C)c1O,Durohydroquinone,1.8
O=C(O)CSc1nc2ccccc2s1,2-(Carboxymethylthio)benzothiazole,1.6
NCc1cccc(CN)c1,"1,3-Benzenedimethanamine",0.18
CCCCCC(C)(O)/C=C/C1C(O)CC(O)C1C/C=C\CCCC(=O)O.NC(CO)(CO)CO (stereo partly drawn),Carboprost tromethamine,3.3
O=C(O)C1CCCCC1C(=O)O (stereo unspecified),"1,2-Cyclohexanedicarboxylic acid",1.01
Cc1cc(C2(c3ccc(O)c(C)c3)CCCCC2)ccc1O,"Phenol, 4,4'-cyclohexylidenebis[2-methyl-",3.1
C=C(C)C(=O)OCC1CCCO1 (stereo unspecified),Tetrahydrofurfuryl methacrylate,1.76
CCCCCCCCCCCCCCCCCC[N+](C)(C)Cc1ccccc1.[Cl-],"N,N-Dimethyl-N-benzyl-N-octadecylammonium chloride",3.23
CC(=O)[C@]1(O)Cc2c(O)c3c(c(O)c2[C@@H](O[C@H]2C[C@H](N)[C@H](O)[C@H](C)O2)C1)C(=O)c1ccccc1C3=O,Idarubicin,0.2
O=C(Nc1ccc2nn(C3CCCCC3)nc2c1)c1ccc([N+](=O)[O-])cc1,N-(2-Cyclohexyl-2H-benzotriazol-5-yl)-4-nitrobenzamide,4.57
CCCCCOCCCCC,Pentyl ether,4.04
CC(=O)[O-].CCN(CCO)c1ccc(/N=N/c2sc3cc(OC)ccc3[n+]2C)cc1,–,1.297
CC(C)=CCC[C@](C)(O)[C@@H]1CC=C(C)CC1,Levomenol,5.15
CCCCCCCCCCCCCCCC(=O)N1C(=O)CCC1C(=O)[O-].[Na+] (stereo unspecified),Sodium 1-hexadecanoyl-5-oxopyrrolidine-2-carboxylate,2.95
CC(C)CC=O,3-Methylbutanal,1.405
COc1nc(N)nc2c1ncn2[C@@H]1O[C@H](CO)[C@@H](O)[C@@H]1O,Nelarabine,-1
O=C1CSC(=O)N1,Thiazolidinedione,-0.29
CC(C)(O)c1ccccc1CC[C@H](O)c1cccc(C=Cc2ccc3ccc(Cl)cc3n2)c1,–,4.9
CCCCCCCCCCCCCCCC=CCC(CC(=O)O)C(=O)O (stereo unspecified),"Butanedioic acid, 2-(2-octadecen-1-yl)-",6.25

Repeated from above, the 7 entries with the highest logP (octanol/water):

| compound | name | logP (octanol/water) |
|---|---|---|
| CCCCCCCCCCCCCCCC=CCC(CC(=O)O)C(=O)O (stereo unspecified) | Butanedioic acid, 2-(2-octadecen-1-yl)- | 6.25 |
| CC(C)=CCC[C@](C)(O)[C@@H]1CC=C(C)CC1 | Levomenol | 5.15 |
| CC(C)(O)c1ccccc1CC[C@H](O)c1cccc(C=Cc2ccc3ccc(Cl)cc3n2)c1 | – | 4.9 |
| C=CC(=O)OCCOCCOCC(CC)CCCC (stereo unspecified) | Di(ethylene glycol) 2-ethylhexyl ether acrylate | 4.59 |
| O=C(Nc1ccc2nn(C3CCCCC3)nc2c1)c1ccc([N+](=O)[O-])cc1 | N-(2-Cyclohexyl-2H-benzotriazol-5-yl)-4-nitrobenzamide | 4.57 |
| COc1ccc2c(c1)C(=O)N(CCc1ccc(S(=O)(=O)NC(=O)NC3CCCCC3)cc1)C(=O)C2(C)C | Gliquidone | 4.5 |
| CC(=O)OCCC1=CC[C@H]2C[C@@H]1C2(C)C | Nopyl acetate, (-)- | 4.24 |